For data set [1], the system named is UGT1A1*28.
Data set [2] deals with UGT1A1*28. The method, then: The two phenotypes that were evaluated were maximum on-treatment liver chemistry values for ALT and TBL with respect to the upper limit of normal. These phenotypes were evaluated separately in case-control and quantitative trait analyses and jointly in a combined case-control analysis. ALT and TBL cases were defined as maximum on-treatment elevations of ≧3×ULN and ≧1.5×ULN, respectively, and control subjects were defined as maximum on-treatment ALT or TBL of ≦1×ULN.
2) As genetic understanding of drug-induced liver injury is limited, a comprehensive drug induced liver injury (DILI) panel, developed by GSI in consultation with external liver experts was also evaluated. This DILI panel is comprised of approximately 6500 single nucleotide polymorphisms (SNPs) in 270 gene regions derived from the postulated mechanisms involved in the pathophysiology of DILI. In both approaches, genetic variation in each gene region was investigated using tag SNPs selected from the International HapMap project and/or high density SNP coverage consisting of all functional SNPs with a previously recorded genotype to phenotype correlation. […] Evaluation of HLA genes focused on a subset of the total number of patients consisting of all ALT cases (N=47) and matched controls (N=47).
This is another data set of the same source.

Read-outs that look alike come from different tables or passages of the source.

Take `CS(=O)(=O)CCNCc1ccc(-c2ccc3ncnc(Nc4ccc(OCc5cccc(F)c5)c(Cl)c4)c3c2)o1` [lapatinib, N-(3 chloro-4-{[(3-fluorophenyl)methyl]oxy}phenyl)-6-[5-({[2 (methylsulfonyl)ethyl]amino}methyl)-2-furanyl]-4-quinazolinamine bis(4 methylbenzenesulfonate)monohydrate]: the “combined ALT/TBL cases carrying UGT1A1 TA7/TA7 genotype” value is on record as 1/6 in the data set with UGT1A1*28 [1] (restricted baseline (ALT and TBL <=1xULN at baseline)); 4/6 with UGT1A1*28 [1] (unrestricted baseline (ALT and/or TBL >1xULN at baseline)). Besides, the odds ratio with UGT1A1*28 [1] (two copies of TA7 as risk group, TBL cases vs controls, exact 95% CI 3.23-42.16) came to 12.06. Further, in the data set with UGT1A1*28 [2] (exploratory, 5/13 combined cases), the “combined ALT/TBL cases that were UGT1A1*28 TA7/TA7 homozygotes” value was 38%. Moreover, the “odds ratio (95% CI) of being a case than a control” value with UGT1A1*28 [2] (patients homozygous for UGT1A1*28 vs other genotypes, TBL elevation) was 10.7 (5.3-21.6). For the same compound, the “risk of lapatinib induced hyperbilirubinemia, (TA)7/(TA)7 genotype relative to (TA)6/(TA)6 and (TA)6/(TA)7” value with UGT1A1*28 [2] (post-hoc investigation, AMBC trials, monotherapy or combinations) is on record as “statistically significant increase”.
